The values that follow are results of earlier work, collected in patent US20220026411A1, “ANALYTICAL METHODS AND ARRAYS FOR USE IN THE SAME” (SENZAGEN AB, priority 2019, published 2022).

The conditions of this data set: training data set; as defined by available literature and expert consensus; cited from earlier work.

As to ethylendiamine, the Function in study entry is reported as “RS/SS”.
